The values that follow come from ChEMBL document CHEMBL1151070, “Synthesis and PKC inhibitory activities of balanol analogs with a cyclopentane substructure” (Bioorg Med Chem Lett, 1995).

SMILES strings stand for the structures.

The target in this experiment is T1, Protein kinase C epsilon type (Homo sapiens, UniProt Q02156).
T1 sequence (Q02156 whole entry): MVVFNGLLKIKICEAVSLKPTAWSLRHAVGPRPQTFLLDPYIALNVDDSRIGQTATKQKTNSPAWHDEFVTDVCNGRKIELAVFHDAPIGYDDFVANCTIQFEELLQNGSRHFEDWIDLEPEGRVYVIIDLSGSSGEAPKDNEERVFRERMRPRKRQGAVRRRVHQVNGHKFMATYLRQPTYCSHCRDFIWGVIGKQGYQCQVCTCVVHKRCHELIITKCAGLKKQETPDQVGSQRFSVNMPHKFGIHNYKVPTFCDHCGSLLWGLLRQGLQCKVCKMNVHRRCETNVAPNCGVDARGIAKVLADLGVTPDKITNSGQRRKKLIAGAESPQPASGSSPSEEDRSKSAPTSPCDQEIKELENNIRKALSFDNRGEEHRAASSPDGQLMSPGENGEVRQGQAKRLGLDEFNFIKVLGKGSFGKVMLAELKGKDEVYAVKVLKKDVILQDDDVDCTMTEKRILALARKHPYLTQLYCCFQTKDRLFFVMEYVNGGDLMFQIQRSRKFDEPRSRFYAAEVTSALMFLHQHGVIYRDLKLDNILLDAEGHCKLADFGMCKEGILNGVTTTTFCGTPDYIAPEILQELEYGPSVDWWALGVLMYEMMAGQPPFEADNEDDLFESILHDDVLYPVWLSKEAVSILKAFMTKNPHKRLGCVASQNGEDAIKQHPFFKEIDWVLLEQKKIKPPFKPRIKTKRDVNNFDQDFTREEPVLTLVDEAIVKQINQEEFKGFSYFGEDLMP
The experiment is described as follows: Inhibition of Protein kinase C epsilon.

`O=C(N[C@@H]1CNCCC[C@H]1OC(=O)c1cc(O)c(C(=O)c2c(O)cccc2C(=O)O)c(O)c1)c1ccc(O)cc1` (racemic) [BALANOL] showed an IC50 of 50 nM.

As usually defined, the IC50 is the concentration needed to halve the response being measured.
